The entries are a selection whose mix differs from that of the whole data set. The source made the active and inactive calls. Calls come from the whole dose curve; as a rule, active = well fitted inhibition curve with a large enough effect; inconclusive = small, poorly fitted or top-dose-only effect; inactive = no such curve, though single readings can be large or run the other way.
% is set by controls: 0 for no effect and ±100 for the full control effect.

By UniProt entry, the sequences of proteins in these tests, tags left out.
UniProt Q8WZA2, whole entry: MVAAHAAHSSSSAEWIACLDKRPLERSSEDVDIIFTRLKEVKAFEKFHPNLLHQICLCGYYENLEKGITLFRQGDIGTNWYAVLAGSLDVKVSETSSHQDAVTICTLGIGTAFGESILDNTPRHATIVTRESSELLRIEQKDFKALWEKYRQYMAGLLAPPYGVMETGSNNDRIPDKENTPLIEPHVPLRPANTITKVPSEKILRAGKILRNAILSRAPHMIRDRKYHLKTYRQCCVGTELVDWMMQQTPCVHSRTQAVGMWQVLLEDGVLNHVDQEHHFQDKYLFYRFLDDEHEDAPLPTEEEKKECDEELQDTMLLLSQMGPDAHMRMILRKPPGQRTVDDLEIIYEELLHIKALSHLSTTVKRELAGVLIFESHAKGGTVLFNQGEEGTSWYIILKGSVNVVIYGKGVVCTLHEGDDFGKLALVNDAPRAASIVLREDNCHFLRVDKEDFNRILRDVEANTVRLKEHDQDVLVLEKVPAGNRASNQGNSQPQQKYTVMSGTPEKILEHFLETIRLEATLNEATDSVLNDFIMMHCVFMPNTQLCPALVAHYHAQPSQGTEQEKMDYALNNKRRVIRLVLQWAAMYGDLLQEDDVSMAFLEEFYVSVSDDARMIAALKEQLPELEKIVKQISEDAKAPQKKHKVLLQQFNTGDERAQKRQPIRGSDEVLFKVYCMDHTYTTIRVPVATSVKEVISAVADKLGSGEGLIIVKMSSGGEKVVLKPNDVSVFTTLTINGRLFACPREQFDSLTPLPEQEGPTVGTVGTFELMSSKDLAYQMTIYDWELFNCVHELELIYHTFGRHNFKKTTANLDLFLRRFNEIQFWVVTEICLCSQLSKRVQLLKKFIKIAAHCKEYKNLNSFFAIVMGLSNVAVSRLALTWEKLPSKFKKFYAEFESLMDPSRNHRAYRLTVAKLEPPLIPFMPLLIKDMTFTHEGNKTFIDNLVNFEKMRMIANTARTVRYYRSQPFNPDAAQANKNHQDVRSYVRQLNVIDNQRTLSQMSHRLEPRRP

This experiment deals with Rap guanine nucleotide exchange factor 4 (Homo sapiens) (UniProt Q8WZA2). Kind of experiment: qHTS for Antagonist of cAMP-regulated guanine nucleotide exchange factor 2 (EPAC2): primary screen. Note: nearly all actives have a fitted effect of over 45% in size. Particulars: EPAC2 GEF exchange of Rap1B-BODIPY-GDP, fluorescence; at 114 µM (top of the series) unless noted. From the text:
In multi-cellular eukaryotic organisms, the effects of cAMP are transduced by two ubiquitously-expressed intracellular cAMP receptors, the classic protein kinase A/cAMP-dependent protein kinase (PKA/cAPK) and the more recently discovered exchange protein directly activated by cAMP/cAMP-regulated guanine nucleotide exchange factor (EPAC/cAMP-GEF). Both PKA and EPAC are ubiquitously expressed in all tissues, and an increase in intracellular cAMP levels will lead to the activation of both PKA and EPAC. Therefore, careful dissections of the individual role and relative contribution of EPAC and PKA within the overall cAMP signaling in various model systems are critical for further elucidating the mechanism of cAMP signaling. To date no EPAC-specific antagonists and agonist, as well as isoform-specific agonists have been reported, and developing EPAC-specific pharmacological probes to determine the physiological functions that EPAC play in the overall cAMP-mediated signaling remains a major challenge within the research field. Furthermore, identified regulators of EPAC may lead to new mechanism-based therapeutic strategies specifically targeting the EPAC / cAMP-signaling components as EPAC has been implicated to play important roles in major human pathological conditions such as diabetes, heart disease, and cancer.
This qHTS will be used to screen the Molecular Libraries Small Molecule Repository (MLSMR) as a concentration-titration series using the NCGC unique quantitative screening (qHTS) platform to find inhibitors for EPAC2. In addition, this assay will also be used as a counterscreen for the EPAC1 qHTS. This fluorescent based assay is developed and validated for EPAC2 that measures exchange using EPAC effector Rap1 complex with BODIPY-GDP, a GDP analog with a tethered fluorophores. Inhibitors are identified by monitoring the change in fluorescence signal as the exchanged free BODIPY-GDP has a reduced fluorescence compared to Rap1-bound BODIPY-GDP. Decrease in signal (inhibition) is the desired outcome for the EPAC2 antagonist while no activity in this assay is desired for the EPAC1 antagonist counterscreen.
NIH Chemical Genomics Center [NCGC]
NIH Molecular Libraries Probe Centers Network [MLPCN]
Assay Submitter (PI): Xiaodong Cheng, The University of Texas, Medical Branch
Briefly, three uL of reagents (100 nM EPAC2, 250 nM RAP1B-BODIPY-GDP, 50 uM GDP) were dispensed into a 1536-well Greiner black solid-bottom medium binding assay plate. Controls and test compounds (23 nL) were transferred to the plate via a Kalypsys pin tool equipped with a 1536-pin array. The plates were centrifuged at 1,000 rpm for 15 seconds followed by 5 minute incubation at room temperature. The assay plates were read at 5 minute intervals for 30 minutes in the ViewLux plate reader using 480nm excitation and 540nm emission filters. The results were normalized to the agonist positive control ATA and DMSO.
(qHTS replaces the single test concentration by a dilution series.)
With `CCOC(=O)N1CCC(Nc2ccc(OC)cc2)CC1`, the activity, negative = inhibition was inactive: 1.11% [at 57.1 µM].

With `CCCCn1nnnc1C(c1ccc(OC)cc1)N1CCC(n2c(=O)[nH]c3ccccc32)CC1` (stereo unspecified), the activity, negative = inhibition was inactive: -12.9%.

Consider `O=C(NCC1(N2CCCCC2)CCCCC1)c1ccc(Cl)s1`, for which the activity, negative = inhibition is inactive: -1.26%.

For `N#CC1(Nc2ccccc2)CCN(Cc2ccccc2)CC1`, the activity, negative = inhibition is inactive: 11.4%.

For `O=C(OC1CN2CCC1CC2)C1c2ccccc2Oc2ccccc21` (stereo unspecified), the activity, negative = inhibition is inactive: 14.2%.

For the molecule `O=c1[nH]c2ccccc2n1C1CCN(C(c2cc3ccccc3o2)c2nnnn2C2CCCCC2)CC1` (stereo unspecified), the activity, negative = inhibition is inactive: -18%.

`COc1ccc(Cl)cc1C(=O)NCC1(N2CCOCC2)CCCCC1`: the activity, negative = inhibition was inactive: 13.8%.

Turning to `O=C1C(O)=C([N+](=O)[O-])C(=O)C(O)=C1[N+](=O)[O-]`, the activity, negative = inhibition was inactive: 11.1%.

Regarding `O=C(NCC1(N2CCCCC2)CCCCC1)c1ccc(=O)[nH]c1`, the activity, negative = inhibition was inactive: 2.73%.

On to `O=C(NCC1(N2CCCCC2)CCCCC1)c1cccs1`, for which the activity, negative = inhibition is inactive: -27.6%.

With `CCCCn1nnnc1C(CC)N1CCC(n2c(=O)[nH]c3ccccc32)CC1` (stereo unspecified), the activity, negative = inhibition was inactive: 7.75%.

In the case of `CCCCn1nnnc1C(c1cccs1)N1CCC(n2c(=O)[nH]c3ccccc32)CC1` (stereo unspecified), the activity, negative = inhibition was inactive: -20.9%.

For `COc1ccc(C(=O)NCC2(N3CCCCC3)CCCCC2)cc1`, the activity, negative = inhibition was inactive: 0.0914%.

Regarding `CC(C)(C)OC(=O)N1CCC(N(C(=O)c2ccccc2)c2ccc(F)cc2)CC1`, the activity, negative = inhibition is inactive: -3.64%.

Consider `COc1ccc(C(=O)NCC2(N3CCCCC3)CCCCC2)c(OC)c1OC`, for which the activity, negative = inhibition is inactive: -8.96%.

On to `CCC(c1nnnn1C1CCCC1)N1CCC(n2c(=O)[nH]c3ccccc32)CC1` (stereo unspecified), for which the activity, negative = inhibition is inactive: 2.95%.

On to `CSc1ccccc1C(=O)NCC1(N2CCCCC2)CCCCC1`, for which the activity, negative = inhibition is inactive: 0.134%.

As to `Cc1cccc(NC2(C#N)CCN(Cc3ccccc3)CC2)c1`, the activity, negative = inhibition was inactive: 5.49%.

As for `CCC(CO)(C(=O)OC1CN2CCC1CC2)c1ccccc1` (stereo unspecified), the activity, negative = inhibition was inactive: -0.728%.

For `COc1cc(OC)cc(C(=O)NCC2(N3CCOCC3)CCCCC2)c1`, the activity, negative = inhibition was inactive: -2.55%.

Consider `COc1cccc(C(c2nnnn2C2CCCC2)N2CCC(n3c(=O)[nH]c4ccccc43)CC2)c1OC` (stereo unspecified), for which the activity, negative = inhibition was inactive: -14.9%.

`COc1cccc(C(=O)N(c2cc(C)cc(C)c2)C2CCN(C(=O)OC(C)(C)C)CC2)c1`: the activity, negative = inhibition is inactive: -26.7%.

Regarding `CN1CCC(Nc2ccc(Cl)cc2)CC1`, the activity, negative = inhibition was inactive: 5.71%.

Take `CCOc1ncccc1C(=O)NCC1(N2CCOCC2)CCCCC1`: the activity, negative = inhibition was inactive: 3.76%.

Take `CN1CCC(Nc2ccc(F)c(Cl)c2)CC1`: the activity, negative = inhibition was inactive: 4.52%.

Turning to `O=c1[nH]c2ccccc2n1C1CCN(C(c2cc3ccccc3o2)c2nnnn2C2CCCC2)CC1` (stereo unspecified), the activity, negative = inhibition is inactive: -14.7%.

On to `CCCOc1ccc(C(=O)NCC2(N(C)C)CCCCC2)cc1`, for which the activity, negative = inhibition was inactive: 0.828%.

`CC(C)(C)OC(=O)N1CCC(Nc2ccccc2)CC1`: the activity, negative = inhibition was inactive: 2.43%.

With `O=C(O)C1(Nc2ccccc2)CCN(Cc2ccccc2)CC1`, the activity, negative = inhibition is inactive: -4.48%.

As for `NN(c1ccccc1)C1CCN(CCc2ccccc2)CC1`, the activity, negative = inhibition is inactive: -1.07%.

As for `Cc1ccccc1NC1(C#N)CCN(Cc2ccccc2)CC1`, the activity, negative = inhibition is inactive: 12.1%.

Regarding `CCN1CCC(Nc2cccc(F)c2)CC1`, the activity, negative = inhibition was inactive: 26.2%.

Regarding `COc1ccc(C(c2nnnn2C2CCCCC2)N2CCC(n3c(=O)[nH]c4ccccc43)CC2)cc1` (stereo unspecified), the activity, negative = inhibition was inactive: -10.9%.

For `CC(C)(C)n1nnnc1C(c1ccnc2ccccc12)N1CCC(n2c(=O)[nH]c3ccccc32)CC1` (stereo unspecified), the activity, negative = inhibition was inactive: -16.1%.

With `O=C(NCC1(N2CCCCC2)CCCCC1)c1ccco1`, the activity, negative = inhibition is inactive: 7.65%.

As for `CN(C)c1ccc(C(=O)NCC2(N3CCCCC3)CCCCC2)cc1`, the activity, negative = inhibition is inactive: 2.21%.

`Cn1c(=O)[nH]cc(N(CCCl)CCCl)c1=O`: the activity, negative = inhibition is inactive: 2.75%.

Take `COc1cc(OC)cc(C(=O)NCC2(N3CCCCC3)CCCCC2)c1`: the activity, negative = inhibition was inactive: -2.44%.

For the molecule `O=c1[nH]c2ccccc2n1C1CCN(C(c2ccnc3ccccc23)c2nnnn2C2CCCCC2)CC1` (stereo unspecified), the activity, negative = inhibition was inactive: 6.26%.

As to `COc1cccc(C(c2nnnn2C2CCCCC2)N2CCC(n3c(=O)[nH]c4ccccc43)CC2)c1OC` (stereo unspecified), the activity, negative = inhibition is inactive: -10.4%.

On to `CC(=O)N(c1ccccc1)C1CCNCC1`, for which the activity, negative = inhibition was inactive: 0.512%.

Regarding `CCC(c1nnnn1C1CCCCC1)N1CCC(n2c(=O)[nH]c3ccccc32)CC1` (stereo unspecified), the activity, negative = inhibition is inactive: -13.9%.

Turning to `Cc1ccc(NC2(C#N)CCN(Cc3ccccc3)CC2)cc1`, the activity, negative = inhibition was inactive: -6.83%.

`Cc1ccc(C(=O)NCC2(N3CCCCC3)CCCCC2)o1`: the activity, negative = inhibition is inactive: -0.315%.

As to `Fc1ccccc1NC1CCN(Cc2ccccc2)CC1`, the activity, negative = inhibition is inactive: 5.72%.

In the case of `Cc1ccc(Nc2c([N+](=O)[O-])cc([N+](=O)[O-])cc2[N+](=O)[O-])cc1`, the activity, negative = inhibition was inactive: -25.7%.
